Measured properties of organic chemicals

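The OPERA project collected these measurements from public sources as training and test data for property models. The files give a single number for a compound and property, which may rest on several reports. How each value was measured is not recorded, so precision varies. The measured form (salt, isomer or mixture) is not always the one drawn. Unmarked limits or estimates from the upstream databases cannot be ruled out.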

Melting points are in °C.
Boiling points are in °C, nominally at 760 mmHg.
logP is the log10 of the octanol-water partition coefficient; higher is more lipophilic.
Solubility in water is on a log10 molar scale (set defined at 25 °C).
Vapor pressure is log10 of mmHg; the set covers 15 to 30 °C, mostly 20 to 25 °C.
The unbound fraction in human plasma runs from 0 (all bound) to 1 (all free).
Cells with "–" have no entry in this list.

The entry for COc1cc(C)c(Cc2cnc(N)nc2N)cc1OC [Ormetoprim] lists log S -2.25 (log10 mol/L) and log vapor pressure -7.644 (log10 mmHg).
The entry for CC(Cl)=CCCl [1,3-Dichloro-2-butene] lists melting point -78 °C and log Kow 2.84 and log vapor pressure 0.999 (log10 mmHg).
The entry for CCOC(=O)C(C)=CCP(=O)(OCC)OCC [Ethyl 4-(diethoxyphosphinyl)-2-methyl-2-butenoate] lists log Kow 1.95 and log vapor pressure -4.824 (log10 mmHg).
The entry for COc1cc(OC)nc(Oc2cccc(Oc3nc(OC)cc(OC)n3)c2C(=O)ON=C(c2ccccc2)c2ccccc2)n1 [Pyribenzoxim] lists log S -5.24 (log10 mol/L) and log vapor pressure -5.129 (log10 mmHg).
The entry for CCCCCC[C@H](C/C=C\CCCCCCCC(=O)OCC(COC(=O)CCCCCCC/C=C\C[C@@H](CCCCCC)OC(C)=O)OC(=O)CCCCCCC/C=C\C[C@@H](CCCCCC)OC(C)=O)OC(C)=O [Glyceryl triacetyl ricinoleate] lists melting point -75.88 °C and log S -8.849 (log10 mol/L) and log vapor pressure -9.639 (log10 mmHg).
The entry for CCCCNS(=O)(=O)c1ccccc1 [N-Butylbenzenesulfonamide] lists log Kow 2.01 and log S -2.676 (log10 mol/L) and log vapor pressure -6.526 (log10 mmHg).
The entry for CN1CCC[C@@H]1CCO[C@](C)(c1ccccc1)c1ccc(Cl)cc1 [Clemastine] lists melting point 178 °C and log Kow 5.2.
The entry for O=C(O)CCCC[C@@H]1SC[C@@H]2NC(=O)N[C@@H]21 [Biotin] lists log S -3.04 (log10 mol/L) and fu 0.8.
The entry for CCCCOCCOCCOCCOCCO [3,6,9,12-Tetraoxahexadecan-1-ol] lists melting point -29 °C and log Kow 0.473.
The entry for C/C(=C\C1CCCCC1)CC(C)C=O (stereo partly drawn) lists BP 261.9 °C and log Kow 4.38 and log S -4.359 (log10 mol/L) and log vapor pressure -2.19 (log10 mmHg).
The entry for CC(C)C(C)(C)[C@@H]1CCC(=O)[C@H](C)C1 (relative stereo) [cis-2-Methyl-4-(1,1,2-trimethylpropyl)cyclohexanone] lists melting point 35.75 °C and BP 267.5 °C and log Kow 2.76 and log S -4.252 (log10 mol/L) and log vapor pressure -2.075 (log10 mmHg).
The entry for CC(C)C[C@H]1OC[C@@H](C)CO1 [1,3-Dioxane, 5-methyl-2-(2-methylpropyl)-, cis-] lists melting point -21 °C and log Kow 3.07 and log S -1.766 (log10 mol/L).
The entry for Cc1ccc(-c2ccccc2C#N)cc1 [4'-Methylbiphenyl-2-carbonitrile] lists log Kow 3.5 and log vapor pressure -3.979 (log10 mmHg).
The entry for Cc1c(C)c([N+](=O)[O-])c(C(C)(C)C)c([N+](=O)[O-])c1C [1-tert-Butyl-3,4,5-trimethyl-2,6-dinitrobenzene] lists log Kow 4.3 and log S -6.709 (log10 mol/L).
The entry for CCCCCCCCC(C)C#N (configuration not stated) [Decanenitrile, 2-methyl-] lists melting point -40.9 °C and log S -4.632 (log10 mol/L) and log vapor pressure -1.763 (log10 mmHg).
The entry for CC1(C)CC(NCCCCCCNC2CC(C)(C)NC(C)(C)C2)CC(C)(C)N1 lists log Kow 0.6 and log S -2.351 (log10 mol/L) and log vapor pressure -7.223 (log10 mmHg).
The entry for Cn1cc(C(=O)O)c(C(F)F)n1 [3-(Difluoromethyl)-1-methyl-1H-pyrazole-4-carboxylic acid] lists melting point 202.6 °C and log Kow 0.39 and log S -1.689 (log10 mol/L) and log vapor pressure -6.88 (log10 mmHg).
The entry for CC(=O)Nc1cc(S(=O)(=O)O)cc(N)c1O [Benzenesulfonic acid, 3-(acetylamino)-5-amino-4-hydroxy-] lists BP 390 °C and log Kow 0.5 and log S -2.09 (log10 mol/L).
The entry for O=C(O)CC(C(=O)O)c1ccccc1 (configuration not stated) [Butanedioic acid, 2-phenyl-] lists log Kow 1.03 and log S -1.85 (log10 mol/L) and log vapor pressure -5.27 (log10 mmHg).
The entry for O=C(Nc1ccccc1SSc1ccccc1NC(=O)c1ccccc1)c1ccccc1 [2,2'-Dibenzoylaminodiphenyl disulfide] lists log Kow 4 and log S -6.978 (log10 mol/L).
The entry for CCCNC(=O)C(C)(C)CO [3-Hydroxy-2,2-dimethyl-N-propylpropanamide] lists BP 280.5 °C and log vapor pressure -2.754 (log10 mmHg).
The entry for N#Cc1ccc(Nc2nc(O)cc(=O)[nH]2)cc1 lists melting point 265.7 °C and log Kow -0.078 and log S -4.58 (log10 mol/L) and log vapor pressure -9.837 (log10 mmHg).
The entry for CC(=O)[C@@]1(O)CC[C@H]2[C@@H]3C=CC4=CC(=O)C=C[C@]4(C)[C@H]3CC[C@@]21C [17-Hydroxy-1,4,6-pregnatriene-3,20-dione] lists log Kow 2.23 and log S -4.213 (log10 mol/L).
The entry for COC(=O)CCc1cc(C(C)(C)C)c(O)c(C(C)(C)C)c1 [Methyl 3,5-bis(tert-butyl)-4-hydroxyhydrocinnamate] lists melting point 65.75 °C and log vapor pressure -5.337 (log10 mmHg).
The entry for c1scc2c1OCCO2 [Thieno[3,4-b]-1,4-dioxin, 2,3-dihydro-] lists melting point 11.7 °C and log Kow 1.976 and log S -1.773 (log10 mol/L).
The entry for CCCc1ccc(-c2ccc(-c3ccc(CC)cc3)c(F)c2F)cc1 [4-Ethyl-2',3'-difluoro-4''-propyl-1,1':4',1''-terphenyl] lists melting point 71.4 °C and BP 431 °C and log S -7.129 (log10 mol/L) and log vapor pressure -8.519 (log10 mmHg).
The entry for CC(C)CC(C)c1ccccc1N (configuration not stated) [2-(1,3-Dimethylbutyl)aniline] lists melting point -78.5 °C and BP 257 °C and log Kow 3.8 and log S -3.558 (log10 mol/L) and log vapor pressure -4.116 (log10 mmHg).
The entry for NCC1CCCC(CN)C1 (configuration not stated) [1,3-Cyclohexanedimethanamine] lists log Kow 0.73 and log vapor pressure -0.593 (log10 mmHg).
The entry for CCCC1CC(C)(OC(C)=O)CCO1 (configuration not stated) [2H-Pyran-4-ol, tetrahydro-4-methyl-2-propyl-, 4-acetate] lists BP 238 °C and log Kow 2.39 and log S -1.904 (log10 mol/L) and log vapor pressure -0.493 (log10 mmHg).
The entry for CCCCCCCC1CCCC(=O)O1 (configuration not stated) [delta-Dodecalactone] lists log Kow 3.48 and log S -3.448 (log10 mol/L).
The entry for O=C1CCCCCCCCCCCCCCC1 [Cyclohexadecanone] lists melting point 67.4 °C and log Kow 7.77 and log S -6.263 (log10 mol/L) and log vapor pressure -4.091 (log10 mmHg).
The entry for CCCCCCCCCCCCCCCCCC(=O)NCCO [N-(2-Hydroxyethyl)octadecanamide] lists melting point 88.8 °C and log Kow 4.46 and log vapor pressure -8.657 (log10 mmHg).
The entry for Oc1c(Cl)cc(Cl)c2cccnc12 [Chloroxine] lists log Kow 3 and log S -3.191 (log10 mol/L).
The entry for O=C(O)c1cc(Cn2nnc(C(F)(F)F)n2)nn1-c1ncccc1Cl lists log Kow 0.021 and log S -2.623 (log10 mol/L).
The entry for CCn1cc(C(=O)O)c(=O)c2ccc(-c3ccncc3)cc21 [Rosoxacin] lists log Kow 3 and log S -3.46 (log10 mol/L).
The entry for CCOC(=O)C(C)(C)n1nc2ccccc2n1 lists melting point 39.5 °C and log Kow 2.98.

The first 3 entries again:

| SMILES | name | melting point (°C) | BP (°C) | log Kow | log S (log10 mol/L) | log vapor pressure (log10 mmHg) | fu |
|---|---|---|---|---|---|---|---|
| COc1cc(C)c(Cc2cnc(N)nc2N)cc1OC | Ormetoprim | – | – | – | -2.25 | -7.644 | – |
| CC(Cl)=CCCl | 1,3-Dichloro-2-butene | -78 | – | 2.84 | – | 0.999 | – |
| CCOC(=O)C(C)=CCP(=O)(OCC)OCC | Ethyl 4-(diethoxyphosphinyl)-2-methyl-2-butenoate | – | – | 1.95 | – | -4.824 | – |

Source: data files of OPERA 2.9 (Mansouri et al.), github.com/kmansouri/OPERA.